# Measured values as given in ChEMBL document CHEMBL1132571, “1-aryl-4-[(5-methoxy-1,2,3, 4-tetrahydronaphthalen-1-yl)alkyl]piperazines and their analogues: influence of the stereochemistry of the tetrahydronaphthalen-1-yl nucleus on 5-HT1A receptor affinity and selectivity versus alpha1 and D2 receptors. 5” (J Med Chem, 1999).
# Amino acid sequences for entries named in this document (tags omitted).
# UniProt P19327, whole entry: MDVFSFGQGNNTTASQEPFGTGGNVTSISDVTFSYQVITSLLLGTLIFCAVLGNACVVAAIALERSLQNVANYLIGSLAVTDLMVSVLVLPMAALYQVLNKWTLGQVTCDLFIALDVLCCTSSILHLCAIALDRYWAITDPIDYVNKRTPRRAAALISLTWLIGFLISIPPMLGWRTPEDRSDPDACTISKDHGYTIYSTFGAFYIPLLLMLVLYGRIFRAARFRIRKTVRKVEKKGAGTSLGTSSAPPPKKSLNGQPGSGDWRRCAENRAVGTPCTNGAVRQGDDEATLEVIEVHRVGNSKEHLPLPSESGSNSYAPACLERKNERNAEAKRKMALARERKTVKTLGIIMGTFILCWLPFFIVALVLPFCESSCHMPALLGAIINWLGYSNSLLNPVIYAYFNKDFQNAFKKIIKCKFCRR
# Biological target: 5-hydroxytryptamine receptor 1A (Rattus norvegicus, UniProt P19327)
# Test: In vitro inhibition of [3H]8-OH-DPAT binding to rat 5-HT 1a receptors.
# Summary of the method: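 Rat hippocampal membranes labelled with [3H]-8-OH-DPAT by standard binding methods, in competition with eight to nine test concentrations. Specific binding was over 80% of total. IC50 derived from inhibition of specific radioligand binding by LIGAND analysis.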
row,Compound,IC50 [nM]
1,COc1ccccc1N1CCN(CCC(=O)N[C@H]2CCCc3c(OC)cccc32)CC1,89
2,COc1ccccc1N1CCN(CCC(=O)N[C@@H]2CCCc3c(OC)cccc32)CC1,320
